Results published in paper PMC6338644 (The FASEB Journal, 2018).

Test system: AMPK phosphorylation (pAMPK Thr172)
Conditions: 20–24 h

| Compound | increase in AMPK phosphorylation (activity) (myotubes and podocytes, 2 mM) | increase in AMPK activity in podocytes (podocytes, 1 mM) |
| --- | --- | --- |
| CN(C)C(=N)N=C(N)N [Metformin, 1,1-Dimethylbiguanide hydrochloride] | 2- to 3 fold | – |
| NC(=O)c1ncn([C@@H]2O[C@H](CO)[C@@H](O)[C@H]2O)c1N [AICAR, 5-aminoimidazole-4-carboxamide ribonucleoside] | – | 2 fold |

Where a name gives a salt, the structure may show the parent alone.
